Results on two compounds are retold here after BindingDB's records for doi:10.1016/0014-2999(93)90488-4 (Maryland Psychiatric Research Center, 1993).

Chains of the proteins cited; added tags and fusions are not shown.
UniProt P14416, whole entry: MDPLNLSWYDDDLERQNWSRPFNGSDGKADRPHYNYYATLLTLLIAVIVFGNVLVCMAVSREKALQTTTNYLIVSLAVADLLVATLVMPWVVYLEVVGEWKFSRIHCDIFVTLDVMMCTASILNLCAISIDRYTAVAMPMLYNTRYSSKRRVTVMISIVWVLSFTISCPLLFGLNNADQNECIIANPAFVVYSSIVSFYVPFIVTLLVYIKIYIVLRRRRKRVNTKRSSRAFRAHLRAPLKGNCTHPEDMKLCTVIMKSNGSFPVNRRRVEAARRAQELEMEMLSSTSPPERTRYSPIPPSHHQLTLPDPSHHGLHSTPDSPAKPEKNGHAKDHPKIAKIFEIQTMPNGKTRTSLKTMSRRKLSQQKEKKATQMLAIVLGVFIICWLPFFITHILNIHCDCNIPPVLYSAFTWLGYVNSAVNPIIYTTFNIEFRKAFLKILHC

One may read the pKi as −log10 of the Ki, conventionally taken in molar units. A low value points to a large Ki.

This test concerns the target D(2) dopamine receptor (Homo sapiens, UniProt P14416).

pKi: −log10 of the molar value.

For `CCN1CCC[C@H]1CNC(=O)c1c(O)c(Cl)cc(Cl)c1OC` [3,5-Dichloro-N-(1-ethyl-pyrrolidin-2-ylmethyl)-2-hydroxy-6-methoxy-benzamide (raclopride)], the negative-log Ki (pKi) was 8.70.

As to `CCCN1CCCC(c2cccc(O)c2)C1` (configuration not stated) [CAS_85976-54-1], the pKi was 6.46.
